Results taken from patent US20220372549A1, “Thermally Responsive Conjugates” (MIP Diagnostic Limited, priority 2019, published 2022).

Settings: formation of turbidity upon heating a polymer solution dispersed in water

zidovudine-poly-N-isopropylmethacrylamide
lower critical solution temperature: approximately 52 °C
